The values below come from US4803208A, “Opiate agonists and antagonists” (Sloan-Kettering Institute For Cancer Research, priority 1985, dated 1989).

The subject of the assay is opiate receptors. The experiment in a line: Irreversible opiate receptor binding/blocking (general statements). Particulars: two washes with incubation at 37° for 10 min. The procedure:
Binding experiments were performed as previously described using 20 mg/ml of tissue (Pasternak et al, Molec Pharmacol 11: 340-351, 1975). In brief, brain membranes were prepared and triplicate samples incubated with [^3 H] labelled ligands and designated drugs for 30 minutes at 25° C., followed by filtration over Whatman GF/B filters. The filters were then counted in Formular 963 scintillation fluor. Specific binding is defined as the difference in binding in the presence and absence of levallorphan (1 uM). […] Each tissue wash included incubation for 10 min. at 37° C., centrifugation and resuspension. Irreversibility experiments included four washes before binding assays were performed, unless otherwise stated.

With `C=CCN1CC[C@]23c4c5ccc(O)c4O[C@H]2C(=O)CC[C@@]3(O)[C@H]1C5` [Naloxone, naloxone], the “removal of reversible ligand by washing (in words)” value is reported as “effectively removed”.
